The source of these data is patent publication US5908868A, “Retinol derivatives useful for enhancing immune response” (priority 1995, dated 1999).

In experiment [1] the test system is thymocytes. The experiment can be described thus: Growth-stimulating effect of retinol on anti-CD3 activated thymocytes in the presence of interleukins. The class given is cell-based, BALB/c mouse. Conditions: 3 days.
For experiment [2], the system named is thymocytes. Described as above. In kind it is cell-based, BALB/c mouse. How it is done:
Cells were cultured in serum-free medium, referred to as ITLB, containing RPMI 1640 supplemented with 8×10^-7 M insulin (5 μg/ml), 7×10^-8 M transferrin (5 μg/ml), 2×10^-6 M linoleic acid, 2×10^-6 M delipidated BSA (0.12 mg/ml), 2 mM L-glutamine, 1 mM sodium pyruvate and antibiotics. They were seeded into 96-well flat-bottom plates at varying cellular densities in a final volume of 100 μl. In control experiments, cells were cultured in medium containing 10% FCS or 3% human serum and 5×10^-5 M 2 ME. T cells and thymocytes were activated with immobilized, purified anti-mab CD3e or by the addition of Con A in the presence or absence of different concentrations of retinoids. Unless indicated otherwise, retinoids were replenished every 12 hours to maintain a reasonably constant concentration of these labile compounds in culture. The optimal concentration for stimulation of T cells was determined for each batch of anti-CD3 mAb and Con A. The optimal range of Con A was particularly narrow in serum-free medium (0.5-0.2 μg/ml) and varied with the cell density used. […] Cellular proliferation was determined by [^3 H] thymidine uptake (0.5 uCi/well; New England Nuclear, Boston, Mass.) after the incubation times indicated for each experiment with a 4 hour labeling pulse. Cells were harvested onto glass filter and [^3 H]TdR incorporation was determined by liquid scintillation counting. […]

As for “IL-2: hrIL-2 purchased from Boehringer Mannheim”, the “CPM anti-CD3, 10^-6 M Retinol” value with thymocytes [1] is on record as 77,343 ± 11,739 CPM. The “CPM anti-CD3, no Retinol” value in the experiment with thymocytes [2] (3 days) is 458 ± 156 CPM. In addition, the “substitution for retinol by lymphokines/cytokines” value with thymocytes [2] (anti-CD3-activated thymocytes, no retinol) is “None and none”.
